Measured values: patent publication US12215069B2, “Sirtuin modulating compounds and applications thereof” (Codagen Biosciences, Inc., priority 2022, dated 2025)

How the values were obtained:
[1] = target: T1, Sirt3 (Homo sapiens, UniProt Q9NTG7); experiment: HPLC assay of Sirt3 deacylation activity under non-steady state conditions; assay type: biochemical; settings: compound 10 μM, 2 minute time point, read-out: % Control (10 μM), Sirt3 deacylation activity
T1 construct: The hSirt3^118-399 was purchased from Xtal Biostructures (Natick, MA); purchased Xtal Biostructures (Natick, MA)
T1 sequence (Q9NTG7 118-399): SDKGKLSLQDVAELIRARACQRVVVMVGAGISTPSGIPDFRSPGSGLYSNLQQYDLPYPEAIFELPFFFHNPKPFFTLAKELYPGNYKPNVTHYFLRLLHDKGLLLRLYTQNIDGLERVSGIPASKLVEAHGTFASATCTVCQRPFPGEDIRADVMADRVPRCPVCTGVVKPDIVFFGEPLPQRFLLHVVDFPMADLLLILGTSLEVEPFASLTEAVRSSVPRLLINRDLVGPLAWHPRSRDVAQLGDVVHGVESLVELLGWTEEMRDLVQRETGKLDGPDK
Procedure: As an established Sirt3 activator, HKL was studied to investigate how the time series of activity modulation depends on the concentration [E]0 of enzyme. The activation of Sirt3 was tested and confirmed by HPLC-assay under non-steady state condition (high enzyme concentration, short reaction time) in the presence of two out of reference compounds of FIGS. 1 and 29. This non-steady state was studied using 50 U or 100 U of enzyme and 50 μM of NAD^+, E0/NAD^+=0.3-0.6 and 2 minute time point to limit the substrate concentration such that steady state is achieved later. The NAD^+ concentration used in our non-steady state study is close to physiological concentration during aging since mitochondrial NAD^+ is ˜200 μM in young age and can drop by 50% or more in old age.
(§1) MnSOD (KGELLEAI-(KAc)-RDFGSFDKF) was synthesized by GenScript (Piscataway, NJ). FdL2 (QPKK^AC-AMC) peptide, also called p53-AMC peptide, was purchased from Enzo Life Sciences (Farmingdale, NY). Carba-NAD was synthesized by Dalton Pharma (Toronto, ON). The hSirt3^118-399 was purchased from Xtal Biostructures (Natick, MA). Virtual screening hits were supplied from ChemBridge Corp. (San Diego, CA).
(§2) Effect of Hit Compounds on hSirt3^118-399 Deacetylation Activity
HPLC Assay Using Native Peptide […]

[2] = target: T1, Sirt3; experiment: Fluorescence-based (FdL) assay of Sirt3 deacylation activity under steady state conditions; assay type: biochemical
Procedure: FIG. 58 illustrates a dose-response curve of the compound of FIG. 29 under steady state condition where [NAD^+]=1 mM, [FdL2 peptide]=50 μM, [E0]/[NAD^+]=0.0015 at 30 min time point (N=3).
Reference compounds of FIGS. 1 and 28-29 were screened using a fast fluorescence-base assay (FdL) under the steady state condition (low enzyme concentration, high reaction time) to validate binding and activity modulation, and show different degrees of inhibitory effect. […] FIG. 58 illustrates a dose-response curve of the compound of FIG. 29 under steady state condition where [NAD^+]=1 mM, [FdL2 peptide]=50 μM, [E0]/[NAD^+]=0.0015 at 30 min time point (N=3).
as §1, §2

## CCCCNC(=O)COc1ccc2c(c1)CCc1ccccc1C2NC(=O)CCCOc1cc([N+](=O)[O-])c(C(C)O)cc1OC (stereo not drawn) [FIG. 29, N-[6-[2-(butylamino)-2-oxo-ethoxy]-2-tricyclo[9.4.0.03,8]pentadeca-1(11),3(8),4,6,12,14-hexaenyl]-4-[4-(1-hydroxyethyl)-2-methoxy-5-nitro-phenoxy]butanamide]
[1]; [E]0/[NAD+]0 = 0.3, 50 μM NAD+
  remaining activity at 10 µM: 107 ± 2%
[1]; [E]0/[NAD+]0 = 0.6, 50 μM NAD+
  remaining activity at 10 µM: 122 ± 1.6%
[2]; compound 1 μM, read-out: % Control, Sirt3 deacylation activity
  remaining activity at 1 µM: 94.1 ± 1.2%
[2]; compound 10 μM, read-out: % Control, Sirt3 deacylation activity
  remaining activity at 10 µM: 63.7 ± 0.6%
[2]; compound 50 μM or maximum
  % Control, Sirt3 deacylation activity: 33.7 ± 2.4%
[2]; compound 50 μM, read-out: Sirt3 deacylation activity inhibited
  inhibition at 50 µM: 66.3%
